The record followed here is patent publication US10246466B2, “Diaryl macrocycles as modulators of protein kinases” (TP THERAPEUTICS, INC., priority 2014, dated 2019).

The chains behind the UniProt entries cited, without tags or fusion partners. Where a name states a change or a piece, a line headed by the entry shows the natural chain unless it says otherwise.
UniProt O60674: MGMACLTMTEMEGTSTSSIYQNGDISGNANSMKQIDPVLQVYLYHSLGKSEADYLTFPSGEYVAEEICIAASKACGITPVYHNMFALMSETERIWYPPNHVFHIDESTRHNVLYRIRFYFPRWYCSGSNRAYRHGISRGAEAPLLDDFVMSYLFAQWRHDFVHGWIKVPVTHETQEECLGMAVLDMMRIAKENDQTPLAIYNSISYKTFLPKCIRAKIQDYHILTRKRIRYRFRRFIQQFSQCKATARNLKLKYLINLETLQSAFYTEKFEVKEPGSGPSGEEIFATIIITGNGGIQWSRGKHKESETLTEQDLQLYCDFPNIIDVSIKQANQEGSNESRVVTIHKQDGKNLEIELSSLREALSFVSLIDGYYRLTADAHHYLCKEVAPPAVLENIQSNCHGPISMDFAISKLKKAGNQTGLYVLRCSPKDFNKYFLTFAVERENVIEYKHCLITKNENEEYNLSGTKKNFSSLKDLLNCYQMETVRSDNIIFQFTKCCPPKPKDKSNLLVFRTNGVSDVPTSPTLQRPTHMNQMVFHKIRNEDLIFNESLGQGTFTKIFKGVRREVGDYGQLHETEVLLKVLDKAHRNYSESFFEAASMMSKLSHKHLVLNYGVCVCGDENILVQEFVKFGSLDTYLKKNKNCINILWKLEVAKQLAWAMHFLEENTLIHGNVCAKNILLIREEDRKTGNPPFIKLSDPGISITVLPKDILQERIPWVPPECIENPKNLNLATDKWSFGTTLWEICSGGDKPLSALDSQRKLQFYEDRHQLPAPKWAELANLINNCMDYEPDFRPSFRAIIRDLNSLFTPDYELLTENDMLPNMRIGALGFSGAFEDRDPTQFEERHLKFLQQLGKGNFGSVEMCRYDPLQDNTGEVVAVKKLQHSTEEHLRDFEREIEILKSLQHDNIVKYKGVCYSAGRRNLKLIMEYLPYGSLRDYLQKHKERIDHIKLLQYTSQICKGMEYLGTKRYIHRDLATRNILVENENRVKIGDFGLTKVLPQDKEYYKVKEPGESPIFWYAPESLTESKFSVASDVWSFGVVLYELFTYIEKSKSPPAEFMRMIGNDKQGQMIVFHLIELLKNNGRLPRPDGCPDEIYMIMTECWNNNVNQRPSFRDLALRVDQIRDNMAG

The Kd is the equilibrium constant for the complex coming apart.

The experiment concerns the target JAK2 (Homo sapiens (Human), UniProt O60674). The experiment in a line: KINOMEscan kinase binding assay (DiscoveRx). The method, then: Kinase binding assays were performed at DiscoveRx using the general KINOMEscan Kd Protocol (Fabian, M. A. et al., “A small molecule-kinase interaction map for clinical kinase inhibitors,” Nat. Biotechnol. 2005, 23(3):329-36). For most assays, kinase-tagged T7 phage strains were prepared in an E. coli host derived from the BL21 strain. E. coli were grown to log-phase and infected with T7 phage and incubated with shaking at 32° C. until lysis. The lysates were centrifuged and filtered to remove cell debris. The remaining kinases were produced in HEK-293 cells and subsequently tagged with DNA for qPCR detection. Streptavidin-coated magnetic beads were treated with biotinylated small molecule ligands for 30 minutes at room temperature to generate affinity resins for kinase assays. The liganded beads were blocked with excess biotin and washed with blocking buffer (SeaBlock (Pierce), 1% BSA, 0.05% Tween 20, 1 mM DTT) to remove unbound ligand and to reduce nonspecific binding. […] All reactions were performed in polystyrene 96-well plates in a final volume of 0.135 mL. The assay plates were incubated at room temperature with shaking for 1 hour and the affinity beads were washed with wash buffer (1×PBS, 0.05% Tween 20). […] The kinase concentration in the eluates was measured by qPCR.

On to `C[C@@H]1CNC(=O)c2cnn3ccc(nc23)N[C@H](C)c2cc(F)ccc2O1` [Example 92, (7R,13R)-11-fluoro-7,13-dimethyl-6,7,13,14-tetrahydro-1,15-ethenopyrazolo[4,3-f][1,4,8,10]benzoxatriazacyclotridecin-4(5H)-one], for which the Kd came out at 0.12 nM.
